# In patent US20210230213A1, “ARAMCHOL SALTS” (GALMED RESEARCH AND DEVELOPMENT LTD., priority 2013, published 2021):
# Details: water
structure (smiles),measurement,setting,value
NCCO [Ethanolamine],Dissolved (50 in g in 1) at 50° C.,"Aramchol free acid and base 1:1, 50° C.",Yes
same,salt remains in solution after cooling to 20° C.,cooled to 20° C.,no
